Test [1] concerns the target T1, Ephrin type-A receptor 4 [29-209] (Homo sapiens, UniProt P54764).
T1 construct: 29-209
As to the kind of experiment: Fluorescence Polarization Assay. The following applies: pH 7.2; 25 °C. As for the experimental part: For competitive binding assays, 1 mL of […] EphA4-LBD was pre-incubated with the tested compounds at various concentrations in 98 mL of PBS (pH 7.2) in 96-well black plates at roomtemperature for 10 min, after which 1 mL of 500 mMFITC-labeled EphA4 peptide was added to produce a final volume of […]. KYL and DMSO were incubated in each assay as positive and negative controls, respectively. After 30 min of incubation at room temperature, the polarization values in millipolarization units were measured at excitation/emission wavelengths of 480/535 nm with a multilabel plate reader (PerkinElmer).

Chains of the proteins cited; added tags and fusions are not shown. Residues count along the entry.
UniProt P54764, 29-209: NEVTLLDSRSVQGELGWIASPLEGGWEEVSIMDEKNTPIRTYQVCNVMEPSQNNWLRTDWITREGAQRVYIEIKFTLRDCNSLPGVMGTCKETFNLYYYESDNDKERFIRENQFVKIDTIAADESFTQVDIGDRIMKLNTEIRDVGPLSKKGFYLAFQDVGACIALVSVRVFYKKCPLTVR
UniProt P54764, 29-209 D61G/E62G: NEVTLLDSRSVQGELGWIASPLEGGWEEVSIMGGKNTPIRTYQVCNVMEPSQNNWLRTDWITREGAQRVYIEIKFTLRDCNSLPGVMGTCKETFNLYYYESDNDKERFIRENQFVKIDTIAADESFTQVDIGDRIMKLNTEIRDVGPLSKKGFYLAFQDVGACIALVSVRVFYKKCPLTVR
UniProt P54764, 29-209 I159A: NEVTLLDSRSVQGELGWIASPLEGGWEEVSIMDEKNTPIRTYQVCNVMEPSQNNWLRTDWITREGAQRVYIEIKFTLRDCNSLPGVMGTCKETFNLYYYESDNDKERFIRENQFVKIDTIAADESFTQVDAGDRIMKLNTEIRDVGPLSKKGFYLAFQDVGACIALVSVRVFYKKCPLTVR
UniProt P54764, 29-209 I67A: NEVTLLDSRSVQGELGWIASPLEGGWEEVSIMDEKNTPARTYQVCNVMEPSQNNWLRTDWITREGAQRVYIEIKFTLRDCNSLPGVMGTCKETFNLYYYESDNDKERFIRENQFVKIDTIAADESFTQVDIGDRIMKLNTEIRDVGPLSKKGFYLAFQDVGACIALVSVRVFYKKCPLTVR
UniProt P54764, 29-209 M164A: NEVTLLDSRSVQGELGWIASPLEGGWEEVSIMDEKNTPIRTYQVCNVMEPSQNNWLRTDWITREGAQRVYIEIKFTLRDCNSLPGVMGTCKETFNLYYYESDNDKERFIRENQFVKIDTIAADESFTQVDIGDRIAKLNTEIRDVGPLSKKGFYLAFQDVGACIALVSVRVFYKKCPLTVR
UniProt P54764, 29-209 M60A: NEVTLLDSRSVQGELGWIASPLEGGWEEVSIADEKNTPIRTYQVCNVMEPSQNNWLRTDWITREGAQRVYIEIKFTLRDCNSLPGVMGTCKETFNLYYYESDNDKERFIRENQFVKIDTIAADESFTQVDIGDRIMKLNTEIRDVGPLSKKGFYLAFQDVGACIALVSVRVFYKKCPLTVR

In test [2] the target is T2, Ephrin type-A receptor 4 [29-209,D61G,E62G] (Homo sapiens, UniProt P54764, D61G/E62G).
T2 construct: 29-209
The test is described as follows: Isothermal Titration Calorimetry (ITC). The following applies: pH 6.5; 27 °C. The protocol:
(§1) The purified EphA proteins (EphA4-LBD, EphA3-LBD, and EphA2-LBD) were dissolved in 50 mM potassium phosphate buffer (pH 6.5) containing 100 mM NaCl. Compound binding was detected at 27 °C by comparing either the 2D-[15N,1H]-HSQC or 2D-[13C,1H]-HSQC spectra of 50 mMEphA4-LBD in absence and presence of compounds at 50 mM. ITC were measured with Model ITC200 from Microcal/GE Life Sciences.

Test [3] has as its target T3, Ephrin type-A receptor 4 [29-209,I159A] (Homo sapiens, UniProt P54764, I159A).
T3 construct: 29-209
As to the kind of experiment: Isothermal Titration Calorimetry (ITC). The following applies: pH 6.5; 27 °C. As for the experimental part:
as §1

Test [4] addresses T4, Ephrin type-A receptor 4 [29-209,I67A] (Homo sapiens, UniProt P54764, I67A).
T4 construct: 29-209
As to the kind of experiment: Isothermal Titration Calorimetry (ITC). The note with it: pH 6.5; 27 °C. The protocol: as §1

The target in test [5] is T5, Ephrin type-A receptor 4 [29-209,M164A] (Homo sapiens, UniProt P54764, M164A).
T5 construct: 29-209
The test is described as follows: Isothermal Titration Calorimetry (ITC). The note with it: pH 6.5; 27 °C. The protocol: as §1

The target of test [6] is T6, Ephrin type-A receptor 4 [29-209,M60A] (Homo sapiens, UniProt P54764, M60A).
T6 construct: 29-209
The test is described as follows: Isothermal Titration Calorimetry (ITC). The note with it: pH 6.5; 27 °C. As for the experimental part: as §1

Test [7] has as its target T1, Ephrin type-A receptor 4 [29-209]. The test is described as follows: Isothermal Titration Calorimetry (ITC). The note with it: pH 6.5; 27 °C. As for the experimental part: as §1

`COc1ccc2[nH]cc(CCNC(=O)[C@H](Cc3ccncc3)NC(=O)[C@H](Cc3ccc(Cl)cc3)NC(=O)[C@H](Cc3c[nH]c4ccc(O)cc34)NC(=O)CCCN)c2c1` [123C4] had a Ki in test [1] of 640 nM. In addition, the dissociation constant (Kd) was 340 nM in test [2]; 290 nM in test [3]; 780 nM in test [4]; 62 nM in test [5]; 350 nM in test [6]; 420 nM in test [7].

(Values after BindingDB's records for doi:10.1016/j.chembiol.2017.01.006 (Sanford Burnham Prebys Medical Discovery Institute, 2017).)
